In patent US6002008A, “Substituted 3-cyano quinolines” (American Cyanamid Company, priority 1998, dated 1999):
Read-outs that look alike come from different tables or passages of the source. One block for each compound: values may come before it.

Amino acid sequences for entries named in this document (tags omitted). Residues count along the entry.
UniProt P29317, 24-976: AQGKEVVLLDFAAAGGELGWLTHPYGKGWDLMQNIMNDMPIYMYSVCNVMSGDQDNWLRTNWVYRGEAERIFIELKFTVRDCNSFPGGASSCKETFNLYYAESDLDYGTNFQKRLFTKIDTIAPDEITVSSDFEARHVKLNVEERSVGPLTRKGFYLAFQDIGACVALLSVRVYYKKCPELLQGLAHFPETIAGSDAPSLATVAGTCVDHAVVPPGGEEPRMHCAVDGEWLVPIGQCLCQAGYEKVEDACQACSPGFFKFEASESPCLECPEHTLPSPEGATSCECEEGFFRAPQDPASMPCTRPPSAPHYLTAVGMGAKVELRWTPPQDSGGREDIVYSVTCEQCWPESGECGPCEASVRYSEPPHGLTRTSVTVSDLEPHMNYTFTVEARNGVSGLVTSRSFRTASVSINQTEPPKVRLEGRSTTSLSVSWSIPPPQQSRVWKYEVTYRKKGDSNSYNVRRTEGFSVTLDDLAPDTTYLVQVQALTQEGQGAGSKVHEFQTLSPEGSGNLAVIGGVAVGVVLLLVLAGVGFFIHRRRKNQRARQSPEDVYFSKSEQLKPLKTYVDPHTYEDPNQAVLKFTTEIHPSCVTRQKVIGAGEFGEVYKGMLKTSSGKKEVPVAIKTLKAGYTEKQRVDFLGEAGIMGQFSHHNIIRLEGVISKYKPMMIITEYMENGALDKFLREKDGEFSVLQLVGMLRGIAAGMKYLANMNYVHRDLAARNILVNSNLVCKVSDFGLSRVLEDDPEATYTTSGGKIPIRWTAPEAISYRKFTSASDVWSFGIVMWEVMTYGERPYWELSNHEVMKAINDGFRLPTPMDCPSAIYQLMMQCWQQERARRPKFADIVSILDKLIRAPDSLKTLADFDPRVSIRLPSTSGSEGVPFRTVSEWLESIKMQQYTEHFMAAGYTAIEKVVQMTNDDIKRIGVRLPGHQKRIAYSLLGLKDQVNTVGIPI
UniProt P00533, 669-1210: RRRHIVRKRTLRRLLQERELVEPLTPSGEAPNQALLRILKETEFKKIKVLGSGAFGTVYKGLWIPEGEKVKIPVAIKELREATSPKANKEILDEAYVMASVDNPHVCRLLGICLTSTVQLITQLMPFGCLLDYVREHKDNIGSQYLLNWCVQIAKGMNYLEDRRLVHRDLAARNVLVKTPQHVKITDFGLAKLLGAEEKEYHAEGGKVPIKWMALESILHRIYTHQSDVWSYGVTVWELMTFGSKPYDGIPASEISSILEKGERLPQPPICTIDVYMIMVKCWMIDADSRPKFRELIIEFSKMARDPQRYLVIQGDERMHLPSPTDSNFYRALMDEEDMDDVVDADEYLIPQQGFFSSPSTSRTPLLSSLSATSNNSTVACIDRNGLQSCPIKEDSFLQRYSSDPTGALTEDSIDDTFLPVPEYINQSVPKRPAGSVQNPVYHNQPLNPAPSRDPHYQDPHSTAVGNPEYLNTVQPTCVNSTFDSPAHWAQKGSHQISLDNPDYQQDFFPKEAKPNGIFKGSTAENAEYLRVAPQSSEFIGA

How the values were obtained:
[1] = target: T1, Epithelial Cell Kinase (ECK) (Homo sapiens, UniProt P29317); experiment: biochemical
[2] = tested on: human epidermoid tumors (A431); experiment: In vivo inhibition of the growth of human epidermoid tumors (A431) in mice; parameters: species or system human tumor in BALB/c nu/nu female mice
[3] = target: T1, Epithelial Cell Kinase (ECK); conditions: read-out: Eck IC50
[4] = target: T2, Epidermal Growth Factor Receptor Kinase (His-tagged cytoplasmic domain of EGFR) (Homo sapiens, UniProt P00533); experiment: Inhibition of Epidermal Growth Factor Receptor Kinase (EGF-R) using recombinant enzyme; type: biochemical; conditions: average of number of tests, RR-SRC peptide
T2 construct: EGFR cDNA encoding amino acids 645-1186 preceded by Met-Ala-(His)6; made in house; host or cells: Sf9 insect cells, baculovirus vHcEGFR52

Compound: CC#CC(=O)Nc1ccc2ncc(C#N)c(Nc3cccc(C)c3)c2c1 [Example 132, N-{3-Cyano-[(3-methylphenyl)amino]-6-quinolinyl}-2-butynamide]
- IC50 [1]: > 58.8 µM

Compound: CCOc1cc2ncc(C#N)c(Nc3cccc(Br)c3)c2cc1OCC [Example 47, 4-[(3-Bromophenyl)amino]-6,7-diethoxy-3-quinolinecarbonitrile]
- Relative Tumor Growth ([2]; 40 mg/kg/dose IP days 1-10, day 7): 3.22
- Relative Tumor Growth ([2]; 40 mg/kg/dose IP days 1-10, day 14): 6.75
- Relative Tumor Growth ([2]; 40 mg/kg/dose IP days 1-10, day 21): 13.38
- Relative Tumor Growth ([2]; 40 mg/kg/dose IP days 1-10, day 28): 18.59
- Relative Tumor Growth ([2]; 50 mg/kg/dose IP days 1-10, day 7): 2.05
- Relative Tumor Growth ([2]; 50 mg/kg/dose IP days 1-10, day 14): 5.04
- Relative Tumor Growth ([2]; 50 mg/kg/dose IP days 1-10, day 21): 10.02
- Relative Tumor Growth ([2]; 50 mg/kg/dose IP days 1-10, day 28): 14.01
- Relative Tumor Growth ([2]; 100 mg/kg/dose IP days 1-10, day 7): 1.57
- Relative Tumor Growth ([2]; 100 mg/kg/dose IP days 1-10, day 14): 3.36
- Relative Tumor Growth ([2]; 100 mg/kg/dose IP days 1-10, day 21): 5.90
- Relative Tumor Growth ([2]; 100 mg/kg/dose IP days 1-10, day 28): 5.85

Compound: COc1ccc(OC)c2c(Nc3ccc(Cl)cc3F)c(C#N)cnc12 [Example 238, 4-(4-Chloro-2-fluoro-phenylamino)-5.8-dimethoxyquinoline-3-carbonitrile]
- IC50 [3]: > 30.3 µM

Compound: COc1cc2ncc(C#N)c(Nc3ccc(F)c(Br)c3)c2cc1NC(=O)C=CCN(C)C [Example 208, 4-Dimethylamino-but-2-enoic acid [4-(3-bromo-4-fluoro-phenylamino)-3-cyano-7-methoxy-quinolin-6-yl]-amide]
- Relative Tumor Growth ([2]; Table 11, 80 IP days 1, 5, 9, day 7): 0.82
- Relative Tumor Growth ([2]; Table 11, 80 IP days 1, 5, 9, day 14): 2.29
- Relative Tumor Growth ([2]; Table 11, 80 IP days 1, 5, 9, day 21): 4.80
- Relative Tumor Growth ([2]; Table 11, 80 IP days 1, 5, 9, day 28): 8.09
- Relative Tumor Growth ([2]; Table 11, 80 PO days 1-10, day 7): 0.40
- Relative Tumor Growth ([2]; Table 11, 80 PO days 1-10, day 14): 0.99
- Relative Tumor Growth ([2]; Table 11, 80 PO days 1-10, day 21): 1.46
- Relative Tumor Growth ([2]; Table 11, 80 PO days 1-10, day 28): 2.63
- tumor growth inhibition relative to animals that did not receive any drug ([2]; Table 11 summary): significantly inhibited tumor growth

- IC50 [4]: 0.1 µM
Compound: COc1cc2ncc(C#N)c(Nc3cccc([N+](=O)[O-])c3)c2cc1OC [Example 89, 6,7-Dimethoxy-4-(3-nitrophenylamino)quinoline-3-carbonitrile]
